In US20120020915A1, “Compounds and Methods for Treating Cancer and Diseases of the Central Nervous System” (QUEENS UNIVERSITY AT KINGSTON, priority 2007, published 2012) one finds IC50 data, which are given here for 1 substance.

In one assay the target is T1, HO-1 (rat spleen) (Rattus norvegicus, UniProt P06762).
T1 construct: Spleen microsomes were used as a source of HO-1; from tissue; host or cells: spleen microsomal fraction of adult male Sprague-Dawley rats
T1 sequence (P06762 1-289): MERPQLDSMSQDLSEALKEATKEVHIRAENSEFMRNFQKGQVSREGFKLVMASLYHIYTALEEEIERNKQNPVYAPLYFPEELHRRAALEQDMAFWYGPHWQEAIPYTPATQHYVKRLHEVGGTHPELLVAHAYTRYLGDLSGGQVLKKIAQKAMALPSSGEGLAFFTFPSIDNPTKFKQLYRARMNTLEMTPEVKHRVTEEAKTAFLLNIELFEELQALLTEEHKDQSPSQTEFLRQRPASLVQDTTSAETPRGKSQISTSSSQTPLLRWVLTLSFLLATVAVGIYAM
The experiment in a line: HO enzymatic activity, rat spleen microsomal fraction (CO formation from methemalbumin). It is filed as biochemical. The conditions noted are these: mean ± SD of replicate experiments. The protocol: (§1) Incubations for HO activity analysis were done under conditions for which the rate of CO formation (pmol CO×min^−1×mg protein^−1) was linear with respect to time and microsomal protein concentration. Briefly, reaction mixtures (150 μL) consisting of 100 mM phosphate buffer (pH 7.4), 50 μM methemalbumin, and 1 mg/mL protein were pre-incubated with the inhibitors at final concentrations ranging from 0.1-100 μM for 10 minutes at 37° C. Reactions were initiated by adding NADPH at a final concentration of 1 mM and incubations were performed for an additional 15 minutes at 37° C.
(§2) Incubations for HO activity analysis were done under conditions for which the rate of CO formation (pmol CO/mg protein/minute) was linear with respect to time and microsomal protein concentration. […] Reactions were stopped by instantly freezing the reaction mixture on pulverized dry ice and CO formation was measured by gas chromatography using a TA 3000R Process Gas Analyzer (Trace Analytical/Ametek, Newark, Del., USA).
(§3) The values on the abscissa represent the decimal logarithm of the inhibitor's concentration (in μM), whereas the values of the activity on the ordinate are expressed as a percentage of the control experiments without inhibitor. […]

The next assay deals with T2, HO-2 (rat brain) (Rattus norvegicus, UniProt P23711).
T2 construct: brain microsomes were used as a source of HO-2; from tissue; host or cells: brain microsomal fraction of adult male Sprague-Dawley rats
T2 sequence (P23711 1-315): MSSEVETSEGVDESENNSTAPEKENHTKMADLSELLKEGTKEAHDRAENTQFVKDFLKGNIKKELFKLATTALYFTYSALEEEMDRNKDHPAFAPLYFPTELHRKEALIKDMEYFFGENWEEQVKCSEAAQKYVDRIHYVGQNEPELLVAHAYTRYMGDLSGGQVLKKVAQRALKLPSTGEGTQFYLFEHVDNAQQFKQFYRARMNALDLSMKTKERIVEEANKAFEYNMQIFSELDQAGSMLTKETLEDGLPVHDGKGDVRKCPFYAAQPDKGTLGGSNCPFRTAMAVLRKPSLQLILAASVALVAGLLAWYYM
The experiment in a line: HO enzymatic activity, rat brain microsomal fraction (CO formation from methemalbumin). It is filed as biochemical. The conditions noted are these: mean ± SD of replicate experiments. The procedure:
as §1, §2, §3

As to “(2R,4R)-2-[2-(4-chlorophenyl)ethyl]-2-[1H-imidazol-1-yl)methyl]-4-[{(4-aminophenyl)thio}methyl]-1,3-dioxolane dihydrochloride [QC-24]”, the values for the IC50 against HO-1 (rat spleen) and against HO-2 (rat brain) were 47 ± 21 µM and more than 100 µM, respectively.

Usually IC50 stands for the concentration at which inhibition is half-maximal. Low readings indicate inhibition by little substance, high ones a need for much substance.
